Patent US20120053200A1, “BACE 2 INHIBITORS” (priority 2010, published 2012)

Protein sequences, listed by entry. Tags and fused reporters are not part of them. Residues count along the entry.
UniProt Q6IE75, 63-514 limits assumed: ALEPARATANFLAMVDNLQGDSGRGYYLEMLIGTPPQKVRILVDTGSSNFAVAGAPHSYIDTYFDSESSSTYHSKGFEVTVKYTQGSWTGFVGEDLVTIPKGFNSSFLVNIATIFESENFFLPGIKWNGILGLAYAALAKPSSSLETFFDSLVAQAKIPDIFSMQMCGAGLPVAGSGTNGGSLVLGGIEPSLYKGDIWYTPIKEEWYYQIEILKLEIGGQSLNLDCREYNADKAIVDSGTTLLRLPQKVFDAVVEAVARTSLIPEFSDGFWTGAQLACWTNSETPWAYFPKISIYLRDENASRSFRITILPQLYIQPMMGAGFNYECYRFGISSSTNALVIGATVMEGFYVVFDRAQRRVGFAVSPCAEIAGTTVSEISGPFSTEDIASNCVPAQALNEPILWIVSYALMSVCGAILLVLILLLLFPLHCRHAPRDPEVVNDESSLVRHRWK

Molecular target: BACE2 (Rattus norvegicus, UniProt Q6IE75)
Assay: Assay for BACE inhibition by measuring cellular TMEM27 cleavage (INS-TMEM27 cells, ELISA of shed TMEM27)
Settings: read-out: BACE2 IC50; inhibition of human TMEM27 cleavage by endogenous cellular BACE2 in INS1e-derived INS-TMEM27 rat cell line; ELISA of shed TMEM27 in supernatant
Description: Assay for […] Inhibition by Measuring Cellular TMEM27 Cleavage
This assay uses the principle of inhibition of human TMEM27 cleavage by endogenous cellular BACE2 in the Ins1e rat cell line and shedding from the cell surface into the culture medium, followed by detection in an ELISA assay. Inhibition of BACE2 prevents the cleavage and shedding in a dose-dependent manner.
The stable cell line “INS-TMEM27” represents an INS1e-derived cell line with inducible expression (using the TetOn system) of full-length hTMEM27 in a doxycycline-dependent manner. The cells were cultured throughout the experiment in RPMI1640+Glutamax (Invitrogen) Penicillin/Streptomycin, 10% Fetal bovine serum, 100 mM pyruvate, […] beta-mercatptoethanol, 100 micrograms/ml G418 and 100 microgram/ml hygromycin and were grown in adherent culture at 37° C. in a standard CO2 cell culture incubator.
INS-TMEM27 cells were seeded in 96-well plates. […]
An ELISA assay (using a pair of mouse anti-human-TMEM27 antibodies, raised against the extracellular domain of TMEM27) was used for detection of TMEM27 in the culture medium. An IC50 for BACE2 inhibition was calculated using the ELISA readout for each inhibitor concentration with standard curve-fitting software. […]

Cc1ccc(C2CCCN2C(=O)c2cccc(C(=O)N[C@@H](Cc3ccccc3)[C@H](O)CNCc3cccc(C(F)(F)F)c3)c2)c(C)c1 (stereo partly shown)
IC50: 222 nM
